Details: ratio 3:7 lidocaine to carrier base, 40° C.

## CCN(CC)CC(=O)Nc1c(C)cccc1C [lidocaine]
  highest concentration lidocaine mixture achievable with the carrier base materials tried: 30%

Source: patent publication US8741330B2, “Transluminal drug delivery methods and devices” (priority 2006, dated 2014)
